Data published in ChEMBL document CHEMBL1148293, “10-Ketomorphinan and 3-substituted-3-desoxymorphinan analogues as mixed kappa and micro opioid ligands: synthesis and biological evaluation of their binding affinity at opioid receptors” (J Med Chem, 2004).
pKi: −log10 of the molar value.

Amino acid sequences for entries named in this document (tags omitted). A change or cut given only in a name is not applied to a line headed by its entry.
UniProt P97266, whole entry: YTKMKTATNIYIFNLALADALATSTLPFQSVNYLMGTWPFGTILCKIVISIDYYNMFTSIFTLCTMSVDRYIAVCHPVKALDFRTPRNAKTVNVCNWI
UniProt P41145: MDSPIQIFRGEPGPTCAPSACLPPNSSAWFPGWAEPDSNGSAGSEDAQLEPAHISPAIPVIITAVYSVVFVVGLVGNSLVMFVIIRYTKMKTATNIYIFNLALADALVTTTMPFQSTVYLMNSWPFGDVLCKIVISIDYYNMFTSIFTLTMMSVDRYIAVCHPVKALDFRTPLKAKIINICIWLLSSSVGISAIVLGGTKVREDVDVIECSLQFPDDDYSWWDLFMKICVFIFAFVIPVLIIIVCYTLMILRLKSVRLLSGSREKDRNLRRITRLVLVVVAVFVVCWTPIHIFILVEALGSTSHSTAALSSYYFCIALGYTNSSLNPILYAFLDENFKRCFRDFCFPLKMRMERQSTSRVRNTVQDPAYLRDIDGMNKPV

Columns and labels:
Mu-type opioid receptor = Mu-type opioid receptor (Cavia porcellus, UniProt P97266); assay: Binding affinity against opioid receptor mu 1 using [3H]DAMGO as radioligand in guinea pig brain membranes.; assay type: cell membranes
[1] = molecular target: Opioid receptors; delta & kappa (UniProt P41145+P41143); assay: Selectivity ratio expressed as Ki of delta opioid receptor to that of kappa opioid receptor.; assay type: protein assay; details: Cavia porcellus
[2] = test system: Opioid receptors; mu & delta; assay: Selectivity ratio expressed as Ki of delta opioid receptor to that of mu opioid receptor.; assay type: protein assay; details: Cavia porcellus

SMILES | pKi (Mu-type opioid receptor) | Selectivity [1] | Selectivity [2]
NC(=O)c1ccc2c(c1)[C@@]13CCCC[C@H]1[C@@H](C2)N(CC1CCC1)CC3 | 10.00 | 46 | 40
Oc1ccc2c(c1)[C@@]13CCCC[C@H]1[C@@H](C2)N(CC1CC1)CC3 [CYCLORPHAN] |  | 56 | 31
